From patent US8877754B2, “Compounds, pharmaceutical compositions and uses thereof” (Boehringer Ingelheim International GmbH, priority 2010, dated 2014)

Sequences of proteins named here, by UniProt entry; tags and fusion partners are left off. Residues count along the entry.
UniProt O00763, 129-2458 limits assumed: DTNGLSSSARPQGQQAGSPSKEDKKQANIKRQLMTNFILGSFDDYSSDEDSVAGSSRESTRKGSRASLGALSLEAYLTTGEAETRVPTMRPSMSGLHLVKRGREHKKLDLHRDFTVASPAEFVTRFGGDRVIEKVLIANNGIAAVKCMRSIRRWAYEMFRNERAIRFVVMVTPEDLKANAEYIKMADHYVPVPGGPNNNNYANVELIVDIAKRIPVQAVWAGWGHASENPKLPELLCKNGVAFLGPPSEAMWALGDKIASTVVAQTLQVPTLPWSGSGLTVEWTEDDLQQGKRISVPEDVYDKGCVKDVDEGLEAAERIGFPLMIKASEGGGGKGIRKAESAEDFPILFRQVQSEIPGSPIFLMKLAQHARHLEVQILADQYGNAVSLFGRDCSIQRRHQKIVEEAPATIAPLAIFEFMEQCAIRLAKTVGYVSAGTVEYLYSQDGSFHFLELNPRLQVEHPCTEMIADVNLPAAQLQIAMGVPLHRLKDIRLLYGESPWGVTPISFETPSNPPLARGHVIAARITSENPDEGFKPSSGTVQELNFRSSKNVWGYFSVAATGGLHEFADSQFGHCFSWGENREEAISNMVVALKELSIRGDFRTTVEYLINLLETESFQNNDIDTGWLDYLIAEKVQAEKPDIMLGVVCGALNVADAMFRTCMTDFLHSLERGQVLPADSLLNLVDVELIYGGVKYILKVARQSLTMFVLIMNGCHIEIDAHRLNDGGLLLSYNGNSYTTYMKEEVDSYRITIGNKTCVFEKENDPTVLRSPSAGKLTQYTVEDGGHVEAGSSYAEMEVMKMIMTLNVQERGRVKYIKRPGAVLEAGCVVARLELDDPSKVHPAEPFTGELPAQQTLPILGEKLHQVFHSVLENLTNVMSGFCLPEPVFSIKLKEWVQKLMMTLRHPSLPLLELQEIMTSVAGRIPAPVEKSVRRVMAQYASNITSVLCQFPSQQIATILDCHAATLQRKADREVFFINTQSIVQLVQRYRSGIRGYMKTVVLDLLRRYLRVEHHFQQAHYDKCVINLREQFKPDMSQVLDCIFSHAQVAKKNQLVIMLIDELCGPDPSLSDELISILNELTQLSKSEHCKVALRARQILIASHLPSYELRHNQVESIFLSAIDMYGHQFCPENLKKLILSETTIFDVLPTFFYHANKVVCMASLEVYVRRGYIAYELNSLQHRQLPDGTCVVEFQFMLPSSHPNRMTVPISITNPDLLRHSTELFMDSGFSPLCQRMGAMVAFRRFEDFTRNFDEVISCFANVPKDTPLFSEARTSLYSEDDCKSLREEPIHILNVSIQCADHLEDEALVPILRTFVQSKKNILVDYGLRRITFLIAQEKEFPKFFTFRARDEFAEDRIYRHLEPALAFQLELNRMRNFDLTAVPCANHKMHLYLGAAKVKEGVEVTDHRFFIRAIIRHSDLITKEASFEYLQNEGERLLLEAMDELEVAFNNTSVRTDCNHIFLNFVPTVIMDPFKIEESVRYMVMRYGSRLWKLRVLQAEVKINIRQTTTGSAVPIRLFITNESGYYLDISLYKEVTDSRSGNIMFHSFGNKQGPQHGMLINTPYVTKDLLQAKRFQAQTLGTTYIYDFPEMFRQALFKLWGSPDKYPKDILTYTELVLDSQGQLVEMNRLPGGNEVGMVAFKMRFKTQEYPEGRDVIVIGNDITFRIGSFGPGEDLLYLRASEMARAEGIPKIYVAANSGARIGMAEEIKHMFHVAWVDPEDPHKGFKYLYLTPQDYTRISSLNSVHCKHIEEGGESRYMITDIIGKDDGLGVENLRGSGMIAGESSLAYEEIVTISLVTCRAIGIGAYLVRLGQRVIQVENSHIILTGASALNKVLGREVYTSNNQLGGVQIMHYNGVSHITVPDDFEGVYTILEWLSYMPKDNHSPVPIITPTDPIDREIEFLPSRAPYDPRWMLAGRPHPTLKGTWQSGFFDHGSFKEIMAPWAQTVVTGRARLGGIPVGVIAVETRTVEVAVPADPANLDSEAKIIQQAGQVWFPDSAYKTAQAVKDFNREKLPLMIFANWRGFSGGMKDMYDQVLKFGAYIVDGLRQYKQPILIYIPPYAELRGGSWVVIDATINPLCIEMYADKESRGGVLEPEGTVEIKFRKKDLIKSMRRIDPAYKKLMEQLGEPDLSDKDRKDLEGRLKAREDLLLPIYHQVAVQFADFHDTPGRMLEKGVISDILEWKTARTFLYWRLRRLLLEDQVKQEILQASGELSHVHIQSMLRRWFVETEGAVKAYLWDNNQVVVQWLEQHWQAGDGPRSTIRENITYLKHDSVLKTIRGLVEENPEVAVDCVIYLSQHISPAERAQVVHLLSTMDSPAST

The molecules below were run against human ACC2 (Homo sapiens, UniProt O00763) (assay: ACC2 assay, spectrophotometric 384 well assay (NADH-linked, coupled lactate dehydrogenase/pyruvate kinase)). Conditions: hACC2 construct lacking the 128 N-terminal amino acids; 25° C., 340 nm, 15 minutes.
Protocol: Spectrophotometric 384 Well Assay
Malonyl CoA formation by acetyl CoA carboxylases is stoichometrically linked to the consumption of ATP. ACC2 activity is measured in a NADH-linked kinetic method measuring ADP generated during the ACC reaction using a coupled lactate dehydrogenase/pyruvate kinase reaction.
For biological testing, a human ACC2 construct which lacks the 128 amino acids at the N-terminus for increased solubility (nt 385-6966 in Genbank entry AJ575592) is cloned. The protein is then expressed in insect cells using a baculoviral expression system. Protein purification is performed by anion exchange.
All compounds are dissolved in dimethyl sulfoxide (DMSO) to a concentration of 10 mM.
Assay reactions are then carried out in 384-well plates, with hACC2 in an appropriate dilution and at final assay concentrations (f.c.) of 100 mM Tris (pH 7.5), 10 mM trisodium citrate, 25 mM KHCO3, 10 mM MgCl2, 0.5 mg/mL BSA, 3.75 mM reduced L-glutathione, 15 U/mL lactate dehydrogenase, 0.5 mM phosphoenolpyruvate, 15 U/mL pyruvate kinase, compounds at different concentrations at final DMSO concentrations of 1%.
The enzymatic reaction is then started by addition of a mixture of NADH, acetyl Coenzyme A (both 200 μM f.c.) and ATP (500 uM f.c.). The decrease of the optical density (slope S) is then determined at 25° C. at a wavelength of 340 nm over 15 minutes in a spectrophotometric reader.
Each assay microtiter plate contains wells with vehicle instead of compound as controls for the non-inhibited enzyme (100% CTL; ‘HIGH’) and wells without acetyl-CoA as controls for non-specific NADH degradation (0% CTL; ‘LOW’). The slope S is used for calculation of % CTL=(S(compound)−S(‘LOW’))/(S(‘HIGH’)—S(‘LOW’))*100. Compounds will give values between 100% CTL (no inhibition) and 0% CTL (complete inhibition).
For IC50 value determination, the sample slope in the presence of the test compound after subtraction of the low controls (S(compound)−S(‘LOW’)) are used. […]

IC50 [nM] | SMILES
80 | CCNC(=O)C(C)c1ccc(C#Cc2ccc(OCc3ccoc3)cc2)cc1 (stereo not drawn)
620 | CCNC(=O)C(C)c1ccc(C#Cc2ccc(Oc3ccccc3)nc2)cc1 (stereo not drawn)
870 | CCNC(=O)C(C)Cc1ccc(C#Cc2ccc(OCC)cc2)cc1 (stereo not drawn)
